The entries are a selection whose mix differs from that of the whole data set. Some salts or complexes appear as unconnected parts, following the source record. Calls of active or inactive are those of the source.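 The calls were made as follows: active = every replicate reaching a set inhibition limit, whatever the replicate mean (cut at about 25% in these data); inconclusive = mean inhibition reaches that limit but some replicates miss it; inactive = the rest.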

The chains behind the UniProt entries cited, without tags or fusion partners.
UniProt P42568, whole entry: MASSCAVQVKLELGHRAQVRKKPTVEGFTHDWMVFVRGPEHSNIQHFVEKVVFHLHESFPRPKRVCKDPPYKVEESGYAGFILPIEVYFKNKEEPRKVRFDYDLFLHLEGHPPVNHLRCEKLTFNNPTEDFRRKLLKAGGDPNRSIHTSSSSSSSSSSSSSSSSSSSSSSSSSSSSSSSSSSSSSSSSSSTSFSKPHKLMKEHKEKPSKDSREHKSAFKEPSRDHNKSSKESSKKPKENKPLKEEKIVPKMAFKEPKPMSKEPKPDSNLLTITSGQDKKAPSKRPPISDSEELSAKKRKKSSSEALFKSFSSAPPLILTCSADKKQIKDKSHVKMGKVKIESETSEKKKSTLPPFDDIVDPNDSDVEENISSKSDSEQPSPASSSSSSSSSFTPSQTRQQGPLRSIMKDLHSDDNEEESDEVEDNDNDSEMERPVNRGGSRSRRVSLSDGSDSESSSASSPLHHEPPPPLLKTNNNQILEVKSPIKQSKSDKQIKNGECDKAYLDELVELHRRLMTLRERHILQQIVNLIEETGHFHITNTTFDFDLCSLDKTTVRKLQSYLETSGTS

The target in the assay is Protein AF-9 (Homo sapiens) (UniProt P42568). Kind of assay: MLL-AF4/AF9 protein interaction blockers – biochemical, AlphaScreen, biotin-AF4 peptide, FLAG-AF9, single point, primary screen (AID 651704).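 Also: 0% = plate neutral control median and 100% = total signal loss.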 As to conditions: biotin-AF4 peptide binding to FLAG-AF9, at 10 µM, stronger effect = higher value. In general terms: In Alpha technology, singlet oxygen from a donor bead excites a nearby acceptor bead.
On to `COc1ccc(N)c([N+](=O)[O-])c1[N+](=O)[O-]`, for which the inhibition (as a rule, the relative decrease from the control value, in per cent) is inactive: 3%.
For `O=P(Nc1ccccn1)(c1ccc(Br)cc1)c1ccc(Br)cc1`, the inhibition was inactive: 1.54%.
The value for `CN(C)C1(CNC(=O)c2ccc(Cl)c(S(N)(=O)=O)c2)CCCCC1` was inactive: -0.962%; that for `O=P(Nc1nc2ccccc2s1)(c1ccccc1)c1ccccc1` was inactive: -1.57%.
The value for `COc1ccc(NP(C)(=O)Oc2ccccc2OC)cc1` (configuration not stated) was inactive: 1.23%; that for `O=[N+]([O-])c1ccc(OP2(=O)COCCO2)cc1` (configuration not stated) was inactive: -0.972%.
To `CC(=O)NC(SC(=S)N(C)C)C(Cl)(Cl)Cl` (configuration not stated) belongs inactive: -2.71%; to `O=[N+]([O-])c1ncn(CCn2cnc([N+](=O)[O-])n2)n1`, inactive: -4.83%; to `Cc1cc(-c2cccc3ccccc23)c(C)cn1.O=[N+]([O-])c1cc([N+](=O)[O-])c(O)c([N+](=O)[O-])c1`, inactive: -7.51%.
Consider `O=[N+]([O-])c1cc([N+](=O)[O-])c(NCC2CCS(=O)(=O)C2)c([N+](=O)[O-])c1` (configuration not stated), for which the inhibition is inactive: -2.24%.
Turning to `O=[As](O)(c1ccccc1)c1ccc(O)cc1`, the inhibition was inactive: -17.6%.
On to `C(Cc1nn[nH]n1)Cc1nn[nH]n1`, for which the inhibition was inactive: 2.36%.
On to `Nc1ccc([As](=O)(O)c2ccc([N+](=O)[O-])cc2)cc1`, for which the inhibition was inactive: -1.93%.
In the case of `Cc1c(C(c2ccc3c(c2)OCO3)c2c(C)n(C)n(-c3ccccc3)c2=O)c(=O)n(-c2ccccc2)n1C.O=[N+]([O-])c1cc([N+](=O)[O-])c(O)c([N+](=O)[O-])c1`, the inhibition was inactive: 0.394%.
On to `C/C(N)=N\P(=O)(OCc1ccccc1)OCc1ccccc1`, for which the inhibition is inactive: -1.98%.
As for `CP(=O)(Nc1ccc(SC(F)(F)F)cc1)Oc1ccc(F)cc1` (configuration not stated), the inhibition was inactive: -1.47%.
As for `O=[N+]([O-])c1cc([N+](=O)[O-])c(C(F)(F)F)c([N+](=O)[O-])c1O`, the inhibition was inactive: -4.26%.
Take `CCOc1ccc(C2=NCC(CBr)S2)cc1` (configuration not stated): the inhibition was inactive: 1.46%.
Take `O=[N+]([O-])c1cc([N+](=O)[O-])c(Nc2ccc(Cl)cc2)c([N+](=O)[O-])c1`: the inhibition is inactive: 13.5%.
Turning to `CP(=O)(Nc1ccccc1F)Oc1ccccc1` (configuration not stated), the inhibition is inactive: 1.03%.
As to `CCc1cc(O)c([N+](=O)[O-])c(C)c1[N+](=O)[O-]`, the inhibition was inactive: -0.308%.
`CC(C)c1ccc(OP(C)(=O)Nc2ccc(SC(F)(F)F)cc2)cc1` (configuration not stated): the inhibition is inactive: -3.95%.
The value for `CC(C)(C)C(=O)NC(Sc1ccccc1)C(Cl)(Cl)Cl` (configuration not stated) was inactive: -1.06%; that for `COC(=O)C1(C)COP(=O)(NCc2ccccc2)OC1` (configuration not stated) was inactive: -1.31%.
`O=C(OC1CN2CCC1CC2)c1ccc([N+](=O)[O-])cc1` (configuration not stated): the inhibition is inactive: -0.14%.
`CC(=O)c1ccc(N2CC2c2ccncc2)cc1` (configuration not stated): the inhibition was inactive: -1.06%.
The value for `N#C/C(=C\c1ccc(N(CCBr)CCBr)cc1)C(N)=O` was inactive: 2.99%; that for `C[C@H]1OP(=O)(Oc2ccccc2)C[C@@H]2O[C@@H]21` (some centres not stated) was inactive: 0.705%.
For `C[C@@H]1C=CCP(=O)(Oc2ccccc2)O1` (some centres not stated), the inhibition is inactive: 0.142%.
As for `Cc1ccccc1CN(C)C(=O)COC(=O)C(O)(c1ccccc1)c1ccccc1`, the inhibition was inactive: -2.47%.
Consider `O=C(OCCN1CCN(CCOCc2ccccc2)CC1)C(O)(c1ccccc1)c1ccccc1`, for which the inhibition is inactive: 7.95%.
On to `CC(=O)Nc1ccc(Oc2c([N+](=O)[O-])cc([N+](=O)[O-])cc2[N+](=O)[O-])cc1`, for which the inhibition is inactive: 1.3%.
With `CC(=O)Nc1ccc([As](=O)(O)O)c(O)c1`, the inhibition is inactive: -4.4%.
To `COc1ccc2c(c1O)-c1c(O)c(OC)cc3c1[C@H](C2)[N+](C)(C)CC3.O=[N+]([O-])c1cc([N+](=O)[O-])c([O-])c([N+](=O)[O-])c1[O-]` belongs inactive: 0.451%; to `CCNC(=S)/N=C(\N)N[N+](=O)[O-]`, inactive: -0.664%.
The value for `O=C(NC1CCS(=O)(=O)C1)NP(=S)(Oc1ccccc1)Oc1ccccc1` (configuration not stated) was inactive: 0.839%; that for `Cc1ccc(NP(=O)(Oc2cccc(C)c2)Oc2cccc(C)c2)nc1` was inactive: 0.367%; that for `CCN(CC)CCCNc1ccccc1[N+](=O)[O-].O=[N+]([O-])c1cc([N+](=O)[O-])c(O)c([N+](=O)[O-])c1` was inactive: -9.4%.
Regarding `c1ccc(-c2nn[nH]n2)c(-c2nn[nH]n2)c1`, the inhibition was inactive: -0.599%.
Regarding `O=P1(N(CCCl)CCCl)OCCC2CCCCN21` (configuration not stated), the inhibition is inactive: 1.11%.
On to `COc1ccc(OP(C)(=O)Nc2ccc(SC(F)(F)F)cc2)cc1` (configuration not stated), for which the inhibition is inactive: -1.54%.
On to `Cc1ccc(OP(=O)(Nc2ccccn2)Oc2ccc(C)cc2)cc1`, for which the inhibition is inactive: -0.761%.
Regarding `Cc1c([N+](=O)[O-])cc([N+](=O)[O-])c(Br)c1[N+](=O)[O-]`, the inhibition was inactive: -0.692%.
Turning to `O=C(OC1CN2CCC1CC2)c1ccccc1` (configuration not stated), the inhibition is inactive: -1.51%.
With `O=[N+]([O-])c1cc([N+](=O)[O-])c(OC2CCCCC2O)c([N+](=O)[O-])c1` (configuration not stated), the inhibition is inactive: -1.13%.
In the case of `O=c1c2cc([N+](=O)[O-])ccc2[nH]c2c([N+](=O)[O-])cc([N+](=O)[O-])cc12`, the inhibition is inactive: 0.838%.
In the case of `CCCCCOc1ccc(NP(C)(=O)Oc2ccc(Cl)cc2Cl)cc1` (configuration not stated), the inhibition was inactive: -0.468%.
To `CN(C)C(=O)Oc1noc2ccccc12` belongs inactive: -3.41%; to `CC(NC(=O)COC(=O)C(O)(c1ccccc1)c1ccccc1)c1ccccc1` (configuration not stated), inactive: -0.861%.
Turning to `Cc1ccccc1OP(=O)(Nc1ccccn1)Oc1ccccc1C`, the inhibition is inactive: -3.28%.
For the molecule `CCCC1OP(N)(=O)OCC1CC` (configuration not stated), the inhibition is inactive: -2.27%.
To `CC(=O)Nc1ccc([As](=O)(O)O)cc1` belongs inactive: -0.254%.
The value for `O=C(O)c1ccccc1[As](=O)(O)O` was inactive: -1.44%; that for `O=P(Nc1nc2ccc(Cl)cc2s1)(c1ccccc1)c1ccccc1` was inactive: 4.74%; that for `Cc1cc(C)cc(OP(C)(=O)Nc2cccc(C(F)(F)F)c2)c1` (configuration not stated) was inactive: -2.79%.
The value for `CN(C)P(=O)(N(C)C)n1c(Nc2ccccc2)nnc1-c1ccccc1` was inactive: 2.28%; that for `O=C1C(O)=C([N+](=O)[O-])C(=O)C(O)=C1[N+](=O)[O-]` was inactive: -0.468%; that for `Cc1ccc(NP(=O)(Oc2ccccc2F)Oc2ccccc2F)nc1` was inactive: -15%.
In the case of `CN(C(=O)Cc1ccc(Cl)c(Cl)c1)[C@H]1CCCC[C@@H]1N1CCCC1`, the inhibition was inactive: 1.74%.
Take `CP(=O)(Nc1ccc(Cl)cc1Cl)Oc1ccccc1` (configuration not stated): the inhibition was inactive: -1.04%.
As for `CCCCCCCCCCCCCCCC1C[N+](C)(C)CCOP(C)(=O)O1` (configuration not stated), the inhibition was inactive: -2.56%.
As for `CP(=O)(OCCOc1ccccc1)OCCOc1ccccc1`, the inhibition was inactive: -8.59%.
Turning to `Nc1cccc2ccc([As](=O)(O)O)cc12`, the inhibition was inactive: -0.864%.
Turning to `NC(=O)c1cc([N+](=O)[O-])cc([N+](=O)[O-])c1N`, the inhibition is inactive: -0.357%.
As to `Cc1ccc(N/C(=N/P(=O)(N2CCOCC2)N2CCOCC2)N2CCOCC2)cc1`, the inhibition is inactive: 0.058%.
Regarding `CN(C(=O)Cc1ccc(Cl)c(Cl)c1)[C@H]1CCCC[C@H]1N1CCCC1`, the inhibition was inactive: -1.21%.
On to `COc1ccccc1OP(C)(=O)Nc1ccc(Br)cc1` (configuration not stated), for which the inhibition was inactive: 9.1%.
The value for `COc1ccccc1OP(=O)(Nc1ccc(C)cn1)Oc1ccccc1OC` was inactive: -0.694%; that for `Clc1ccc(Cl)c(NC2=NCC(CBr)S2)c1` (configuration not stated) was inactive: 0.708%; that for `O=[N+]([O-])c1cc([N+](=O)[O-])c(Nc2ccccn2)c([N+](=O)[O-])c1` was inactive: 7.16%.
For `O=C(NC(Sc1ccncn1)C(Cl)(Cl)Cl)c1ccccc1` (configuration not stated), the inhibition was inactive: -3.63%.
The value for `COc1ccc(C2=NCC(CBr)S2)cc1` (configuration not stated) was inactive: -11.1%.
Turning to `CCc1ccc(OP(C)(=O)Nc2cccnc2)cc1` (configuration not stated), the inhibition is inactive: 0.29%.
As to `O=[N+]([O-])c1cc([N+](=O)[O-])c(CCNc2ccccc2)c([N+](=O)[O-])c1`, the inhibition is inactive: 13.1%.
The value for `Cc1ccc(NP(=O)(Oc2ccccc2)Oc2ccccc2)nc1` was inactive: 0.472%; that for `COc1ccccc1OP(C)(=O)Nc1ccccc1Br` (configuration not stated) was inactive: 0.32%; that for `Nc1ccc([As](=O)(O)c2ccc(N)cc2)cc1` was inactive: -6.5%.
To `CCN(/C(=N/P(=O)(N1CCOCC1)N1CCOCC1)N1CCOCC1)c1ccc(OC)cc1` belongs inactive: -2.98%; to `CC(C)c1nc(Nc2ccccc2)n(P(=O)(N(C)C)N(C)C)n1`, inactive: 0.487%; to `CN(C)C(=O)c1c([N+](=O)[O-])cc([N+](=O)[O-])cc1[N+](=O)[O-]`, inactive: -2.78%.
Turning to `CC(C)=N/N=C(\N)N[N+](=O)[O-]`, the inhibition was inactive: 0.632%.
On to `c1cc(-c2nn[nH]n2)ccc1-c1nn[nH]n1`, for which the inhibition was inactive: -1.39%.
The value for `Nc1ccc2c(ccc3cccnc32)n1.O=[N+]([O-])c1cc([N+](=O)[O-])c(O)c([N+](=O)[O-])c1` was inactive: -2.47%; that for `O=P1(N(CCCl)CCCl)OCCCS1` (configuration not stated) was inactive: -1.83%.
For `O=C(Nc1cc([As](=O)(O)O)ccc1O)c1ccccc1`, the inhibition is inactive: -6.93%.
On to `CCOC(=O)c1ccc(NP(C)(=O)Oc2ccc(Cl)cc2)cc1` (configuration not stated), for which the inhibition was inactive: -3.11%.
The value for `CC(C)(C)C(=O)NC(Sc1ccncn1)C(Cl)(Cl)Cl` (configuration not stated) was inactive: -23.4%; that for `O=[N+]([O-])c1ncn(CCn2ncnc2[N+](=O)[O-])n1` was inactive: -1.1%.
The value for `COC(=O)C1(C)COP(=O)(Nc2ccccc2)OC1` (configuration not stated) was inactive: -0.441%; that for `O=C(O)CNc1ccc([As](=O)(O)O)cc1` was inactive: -3.48%; that for `CC1CCNP(=O)(N(CCCl)CCCl)O1` (configuration not stated) was inactive: 0.12%.
Regarding `O=C(O)C(=O)c1ccc(N(CCCl)CCCl)cc1.c1ccc(Nc2ccccc2)cc1`, the inhibition is inactive: -3.01%.

These data come from PubChem BioAssay AID651704 (Broad Institute, 2012).
